In the assay the target is T1, Histamin-H2-Rezeptoren (Cavia porcellus, UniProt P47747).
T1 construct: in vitro am isolierten rechten Vorhof des Meerschweinchens; from tissue; host or cells: isolated right atrium of the guinea pig
The experiment in a line: Determination of pA2 values in vitro on the isolated right atrium of the guinea pig (H2-antagonistic activity). In kind it is cell-based, Meerschweinchen. The source says:
Die erfindungsgemäßen Verbindungen zeigen aufgrund ihrer spezifischen H2-antagonistischen Aktivität eine Hemmung der Magensäuresekretion, wenn diese durch Histaminagonisten stimuliert wird [Ash und Schild, "Brit. J. Pharmacol. Chemother.", 27, 427 (1966) und Black et al., "Nature", 236, 385 (1971)]. Die pharmakologische Aktivität dieser Verbindungen, wie sie genauer weiter unten beschrieben werden, kann nach einer modifizierten Methode gemäß der DE-OS 27 34 070 beim perfundierten Rattenmagen gezeigt werden oder durch die Ermittlung der pA2-Werte in vitro am Meerschweinchenvorhof (vgl. Ariens, Molecular Pharmacology, Band 1, Academic Press, New York, 1964) nachgewiesen werden. Weiterhin kann die H2-antagonistische Wirkung an wachen Heidenhain-Pouch-Hunden nach der Methode von Black et al., "Nature", 236, 385 (1971) gezeigt werden. Die neuen Verbindungen antagonisieren weiterhin die Histaminwirkung auf die Kontraktionsfrequenz des isolierten rechten Atriums des Meerschweinchens, aber sie beeinflussen nicht histamininduzierte Kontrakti men des isolierten, glatten gastrointestinalen Muskels, wenn diese durch H2-Agonisten hervorgerufen werden.
Eine anerkannte Methode zur Bestimmung H2-antagonistischer Wirksamkeit ist die Ermittlung der pA2-Werte in vitro am isolierten rechten Vorhof des Meerschweinchens.

Chains of the proteins cited; added tags and fusions are not shown.
UniProt P47747, whole entry: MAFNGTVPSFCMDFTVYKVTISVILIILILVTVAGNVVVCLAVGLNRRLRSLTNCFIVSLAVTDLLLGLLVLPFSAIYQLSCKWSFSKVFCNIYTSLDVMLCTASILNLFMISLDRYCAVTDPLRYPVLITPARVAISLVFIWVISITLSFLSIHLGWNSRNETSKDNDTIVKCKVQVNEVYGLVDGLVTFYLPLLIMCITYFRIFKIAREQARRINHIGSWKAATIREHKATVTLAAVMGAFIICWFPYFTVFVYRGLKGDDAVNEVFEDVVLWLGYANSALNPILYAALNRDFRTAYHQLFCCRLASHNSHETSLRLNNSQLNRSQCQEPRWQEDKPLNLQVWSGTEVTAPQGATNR

The source of these data is patent EP0141119A2, “Sulfenamide derivatives, process for their preparation, and medicaments containing these compounds” (LUDWIG HEUMANN & CO GMBH, priority 1983, dated 1985).

Turning to `CN/C(=N/CCSCc1nc[nH]c1C)NC#N` [Cimetidin], the Kb (commonly the affinity of an antagonist, worked out from how it opposes an agonist) is 0.49 µM.
